From patent US20250186600A1, “EXCIPIENT COMPOUNDS FOR PROTEIN FORMULATIONS” (Comera Life Sciences, Inc., priority 2020, published 2025)
Each block holds one substance with its values, some of them ahead of it.

Experiments:
omalizumab [1] = assay: Diffusion interaction parameter kD of omalizumab by DLS (Example 62); details: Table 62A series; omalizumab 10 to 0.6 mg/mL, 0.1M excipient, His HCl pH 6.0, 25° C.
omalizumab [2] = assay: Viscosity of omalizumab solution by DLS of gold nanoparticles (Example 62); details: pH 6
ustekinumab [3] = assay: Stabilization at low pH, Sypro orange fluorescence (Example 45); details: excipient 5 mg/mL, ustekinumab 1 mg/mL, glycine acidification buffer pH 2.6, Sypro orange fluorescence
ustekinumab [4] = assay: Urea denaturation, Sypro orange fluorescence (Example 44); assay type: physicochemical; details: excipient 5 mg/mL, ustekinumab 1 mg/mL, 6M urea, 20 mM histidine pH 6.0, Sypro orange fluorescence

Substance: Cyclohexane methylamine
kD (omalizumab [1]): -20.9 mL/g | Viscosity normalized to control (omalizumab [2]): 0.87

% change in stability (ustekinumab [3]): 21.7%
Substance: Methyl cytidine

% increased stability (ustekinumab [4]): 4.0%
Substance: methyl cytidine
